According to patent publication US8314108B2, “5-(5-(2-(3-aminopropoxy)-6-methoxyphenyl)-1H-pyrazol-3-ylamino)pyrazine-2-carbonitrile, pharmaceutically acceptable salts thereof, or solvate of salts” (Eli Lilly and Company, priority 2008, dated 2012):
Structures can show the parent of a compound that is named as a salt.

Tested on: HT-29 cells
Assay: ECtfs (Two-Fold Sensitization) Assay, 3H-thymidine incorporation
Format: cell-based
Conditions: 3 nM alone, without gemcitabine
Protocol: An inhibitor of Chk1 can potentiate the anti-proliferative activity of gemcitabine (or other cytotoxics) through abrogation of the intra-S phase checkpoint, resulting in sustained and increased DNA damage. The capacity for continued tumor cell proliferation after DNA damage can be analyzed by determining the ability of cells to replicate their DNA. […] In this assay, cells are treated with gemcitabine, and then with the compound of Example 2. Following a recovery period, cells are assayed for the ability to incorporate radioactive thymidine into DNA during S phase. The ECtfs parameter is a measure of the concentration of a Chk1 inhibitor necessary to reduce by half the GI90 concentration of gemcitabine, measured in this assay in the absence of Chk1 inhibition. HT-29 cells (obtained from ATCC), are grown in RPMI 1640 plus (Gibco™) 10% (v/v) heat inactivated FBS. These cells are plated at 1.3×10^3 per well on Corning Costar 96-well tissue culture plates. After plating the cells, the tissue culture plates are held at room temperature for 45 minutes, before returning to 37° C. Plates are incubated for 24 hours prior to gemcitabine addition. […] Plates are counted on a Topcount scintillation counter (PerkinElmer), at 1 minute per well. ^3H-thymidine counts per minute (cpm) are exported into Prism (GraphPad) for analysis and plotting. […]

Which “effect on the proliferation of HT29 cells” value does the source give for `COc1cccc(OCCCN)c1-c1cc(Nc2cnc(C#N)cn2)n[nH]1` [Example 2, 5-(5-(2-(3-Aminopropoxy)-6-methoxyphenyl)-1H-pyrazol-3-ylamino)pyrazine-2-carbonitrile dihydrogen chloride salt] here?
Its value is “little effect”.
